The target of this test is Tyrosine-protein kinase SYK (Homo sapiens, UniProt P43405).

As for `C[C@@H](Oc1nc(-c2cn(C(F)F)cn2)cc2nn(C)cc12)[C@H]1CNC(=O)C1`, the IC50 stood at 732 nM. That is a sub-micromolar value. `C[C@@H](Oc1cc(-c2ccc(N3CCOCC3)c(C(F)(F)F)c2)cc2nn(C)cc12)[C@H]1CNC(=O)C1`: it took 60.9 nM to reach half-maximal inhibition (IC50).

As a reminder, the IC50 is the concentration that gives 50% inhibition. The low end stands for greater potency, the high end for weaker potency.

The values above are taken from ChEMBL document CHEMBL5726825, “Heteroaryl Syk inhibitors” (2018).
